PMC9775004 (Biosensors, 2022)

Tested on: FILLac10N0C
Experiment: FRET emission ratio (Venus to mTFP) response of purified FILLac10N0C
Format: binding, Salmonella enterica serovar Typhimurium LT2
Conditions: 50 μM compound

O=C(O)CC(C(=O)O)C(O)C(=O)O (stereo not shown) [isocitrate]
fluorescence emission ratio change of FILLac10N0C (specificity analysis): did not change the emission ratio
